Target: human P2X7 receptor (Homo sapiens (Human), UniProt Q99572, R270H)
Assay: Evaluation of a human P2X7 receptor inhibitory activity (Yo-Pro uptake, BzATP stimulation, FLIPR TETRA)
Settings: 1321N1 cells stably expressing human P2X7 receptor, Yo-Pro fluorescence, class symbols
Experimental: Evaluation of a human P2X7 receptor inhibitory activity Stably expressing cell line (1321N1 cell transfected with the human P2X7 receptor gene (GenBank accession number NM_002562.5 including T606C and G952A SNP)) was used. The cells were seeded in a 384-well microtiter plate at a concentration of 8000 cells/well and cultured in the medium (10% fetal bovine serum, 25 mM HEPES, 1% penicillin and streptomycin in DMEM) for one day at 37° C. under 5% carbon dioxide atmosphere. After replacing with 20 μL of the HBSS buffer (20 mM HEPES, 55.6 mM D-glucose, 1× HBSS(−), pH7.4-7.5), 15 μL of 17.3 μM Yo-Pro solution in the HBSS buffer was added. […] Measurement of fluorescence intensity by FLIPR TETRA was started. After eight minutes, 15 μL of DMSO solutions containing different concentrations of the compound of the present invention as prepared by dilution with the HBSS buffer were dispensed to each well through the built-in automatic dispenser, and the measurement of fluorescence intensity was continued for 20 minutes. […] Changing values of fluorescence intensity by the compound of the present invention were calculated by difference between maximum and minimum fluorescence intensity for 20 minutes. Inhibition ratios (%) were calculated from the following equation:
[formula] IC50 was calculated using logistic approximation. […]

Chains of the proteins cited; added tags and fusions are not shown.
UniProt Q99572, whole entry R270H: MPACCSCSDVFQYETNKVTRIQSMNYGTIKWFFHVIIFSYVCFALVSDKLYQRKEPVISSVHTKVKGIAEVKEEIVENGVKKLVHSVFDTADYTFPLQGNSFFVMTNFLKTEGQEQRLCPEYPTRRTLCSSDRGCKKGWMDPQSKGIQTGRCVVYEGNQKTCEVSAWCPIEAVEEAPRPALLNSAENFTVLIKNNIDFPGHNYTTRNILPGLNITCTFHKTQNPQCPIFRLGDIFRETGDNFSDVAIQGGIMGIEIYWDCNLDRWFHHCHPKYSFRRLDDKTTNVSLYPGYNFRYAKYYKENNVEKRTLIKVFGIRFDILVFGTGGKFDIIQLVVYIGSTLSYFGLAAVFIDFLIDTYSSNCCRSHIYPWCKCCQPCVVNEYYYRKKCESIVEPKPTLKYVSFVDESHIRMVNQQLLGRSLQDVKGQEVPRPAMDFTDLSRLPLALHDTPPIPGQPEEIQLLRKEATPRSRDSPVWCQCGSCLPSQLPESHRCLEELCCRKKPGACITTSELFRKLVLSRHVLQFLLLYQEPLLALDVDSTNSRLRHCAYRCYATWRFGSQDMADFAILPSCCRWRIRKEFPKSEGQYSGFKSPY

COc1ccc(C)c(Nc2nc(=O)c(F)c3n2C(c2ccc(F)cc2F)CC3)c1 (stereo not shown)
IC50: 10 to 100 nM
